Earlier results on one molecule are cited in patent US20220387358A1, “CERAMIDE ANALOG SACLAC MODULATES SPHINGOLIPID LEVELS AND MCL-1 SPLICING TO INDUCE APOPTOSIS IN ACUTE MYELOID LEUKEMIA” (University of Virginia Patent Foundation, priority 2019, published 2022).

The series relates to FLT3. The settings on record: FLT3-ITD-positive patients; cited from earlier work.

`CC(C)(C)c1cc(NC(=O)Nc2ccc(-c3cn4c(n3)sc3cc(OCCN5CCOCC5)ccc34)cc2)no1` [quizartinib]: the composite complete remission result is listed as “about 50%” and the “patients achieving complete remission” value is “about 5%”.
